Assay results published in patent US9701680B2, “Pyrimidine and pyridine compounds and their usage” (HUTCHISON MEDIPHARMA LIMITED, priority 2013, dated 2017).
pIC50: −log10 of the molar value. Where two headings read alike, the source gives them in different places.

Sequences of proteins named here, by UniProt entry; tags and fusion partners are left off. Residues count along the entry.
UniProt P11362, 22-822 limits assumed: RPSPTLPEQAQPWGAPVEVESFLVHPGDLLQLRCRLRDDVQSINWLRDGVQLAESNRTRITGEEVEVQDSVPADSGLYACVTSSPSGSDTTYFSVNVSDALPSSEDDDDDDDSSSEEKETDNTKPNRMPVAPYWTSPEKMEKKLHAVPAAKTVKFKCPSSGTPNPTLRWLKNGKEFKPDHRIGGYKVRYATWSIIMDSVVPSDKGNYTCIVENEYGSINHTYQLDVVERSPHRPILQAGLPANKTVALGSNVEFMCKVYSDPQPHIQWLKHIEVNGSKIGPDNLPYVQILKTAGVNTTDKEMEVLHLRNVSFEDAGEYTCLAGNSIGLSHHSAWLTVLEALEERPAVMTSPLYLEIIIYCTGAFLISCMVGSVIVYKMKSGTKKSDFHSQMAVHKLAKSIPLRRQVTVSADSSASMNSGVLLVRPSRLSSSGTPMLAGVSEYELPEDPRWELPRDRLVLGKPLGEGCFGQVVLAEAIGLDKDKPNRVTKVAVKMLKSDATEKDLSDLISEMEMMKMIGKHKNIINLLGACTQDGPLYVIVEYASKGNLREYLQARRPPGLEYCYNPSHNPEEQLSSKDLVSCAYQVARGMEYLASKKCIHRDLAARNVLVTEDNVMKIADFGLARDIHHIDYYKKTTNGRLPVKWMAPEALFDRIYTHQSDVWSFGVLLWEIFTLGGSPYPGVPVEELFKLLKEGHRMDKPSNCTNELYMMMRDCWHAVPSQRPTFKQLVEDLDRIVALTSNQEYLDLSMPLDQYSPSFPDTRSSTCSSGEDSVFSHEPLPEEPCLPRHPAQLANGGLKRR
UniProt P21802, 22-821 limits assumed: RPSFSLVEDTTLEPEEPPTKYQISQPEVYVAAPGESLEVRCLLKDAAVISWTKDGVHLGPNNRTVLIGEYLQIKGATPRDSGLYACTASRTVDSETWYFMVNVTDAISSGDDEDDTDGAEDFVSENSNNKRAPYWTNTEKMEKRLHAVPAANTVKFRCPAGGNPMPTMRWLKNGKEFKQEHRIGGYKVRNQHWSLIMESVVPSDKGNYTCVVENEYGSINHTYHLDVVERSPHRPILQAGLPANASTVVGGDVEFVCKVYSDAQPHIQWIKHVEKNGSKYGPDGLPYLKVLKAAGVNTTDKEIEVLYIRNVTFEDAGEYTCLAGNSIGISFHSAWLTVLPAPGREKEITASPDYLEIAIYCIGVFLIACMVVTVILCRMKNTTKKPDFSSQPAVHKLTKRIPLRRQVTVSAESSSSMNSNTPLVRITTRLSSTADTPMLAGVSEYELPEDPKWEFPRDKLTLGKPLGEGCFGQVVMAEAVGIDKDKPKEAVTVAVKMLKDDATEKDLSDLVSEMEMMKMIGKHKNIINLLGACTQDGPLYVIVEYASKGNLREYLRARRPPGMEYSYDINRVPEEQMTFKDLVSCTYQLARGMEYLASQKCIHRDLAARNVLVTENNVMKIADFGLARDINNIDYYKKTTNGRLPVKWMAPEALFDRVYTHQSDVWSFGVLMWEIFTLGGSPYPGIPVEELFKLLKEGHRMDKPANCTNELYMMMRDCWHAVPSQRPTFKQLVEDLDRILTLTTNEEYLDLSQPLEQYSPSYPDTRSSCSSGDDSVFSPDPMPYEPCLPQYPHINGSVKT
UniProt P22607, 23-806 limits assumed: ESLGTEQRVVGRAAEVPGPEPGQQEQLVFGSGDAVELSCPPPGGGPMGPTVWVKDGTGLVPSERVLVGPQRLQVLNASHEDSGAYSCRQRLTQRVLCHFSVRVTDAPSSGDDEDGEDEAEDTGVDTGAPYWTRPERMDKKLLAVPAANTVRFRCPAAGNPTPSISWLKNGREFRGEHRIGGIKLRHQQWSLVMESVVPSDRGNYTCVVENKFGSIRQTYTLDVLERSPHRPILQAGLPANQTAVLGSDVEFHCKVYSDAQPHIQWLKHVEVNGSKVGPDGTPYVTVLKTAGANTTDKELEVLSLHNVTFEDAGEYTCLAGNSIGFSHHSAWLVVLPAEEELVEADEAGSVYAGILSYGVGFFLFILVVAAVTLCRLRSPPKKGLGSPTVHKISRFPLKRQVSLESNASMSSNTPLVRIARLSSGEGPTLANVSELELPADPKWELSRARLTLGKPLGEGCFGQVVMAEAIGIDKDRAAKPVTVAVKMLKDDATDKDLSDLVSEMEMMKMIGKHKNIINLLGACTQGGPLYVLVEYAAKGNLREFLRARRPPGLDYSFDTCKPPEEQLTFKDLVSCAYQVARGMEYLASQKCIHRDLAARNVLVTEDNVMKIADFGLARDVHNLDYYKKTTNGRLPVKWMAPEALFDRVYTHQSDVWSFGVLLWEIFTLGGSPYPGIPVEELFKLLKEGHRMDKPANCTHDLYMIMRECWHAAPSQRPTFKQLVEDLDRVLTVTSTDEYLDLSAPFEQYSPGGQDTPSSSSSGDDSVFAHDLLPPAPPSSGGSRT

Assays:
Recombinant human FGFR1 = Recombinant human FGFR1 (Homo sapiens, UniProt P11362); assay: Transcreener Kinase Assay of FGFR1; type: biochemical; conditions: read-out: FGFR1 (FP) IC50
Recombinant human FGFR2 = Recombinant human FGFR2 (Homo sapiens, UniProt P21802); assay: Transcreener Kinase Assay of FGFR2; conditions: read-out: FGFR2 (FP) IC50
SNU-16 = assay: Cellular Proliferation Assay (Cell Counting Kit-8), SNU-16; type: cell-based; conditions: read-out: SNU-16 IC50; SNU-16 cells, 72 hours
KG-1 = assay: Cellular Proliferation Assay (Cell Counting Kit-8), KG-1; conditions: read-out: KG1 IC50; KG-1 cells, 72 hours
FGFR3 kinase = FGFR3 kinase (Homo sapiens, UniProt P22607); assay: Z-Lyte Kinase Assay of FGFR3; type: biochemical; conditions: read-out: FGFR3 (Z-lyte) IC50
RT-112 = assay: Cellular Proliferation Assay (Cell Counting Kit-8), RT-112; conditions: read-out: RT-112 IC50; RT-112 cells, 72 hours

SMILES | pIC50 (Recombinant human FGFR1) | pIC50 (Recombinant human FGFR2) | pIC50 (SNU-16) | pIC50 (KG-1) | pIC50 (FGFR3 kinase) | pIC50 (RT-112) | pIC50 (Recombinant human FGFR1; FP) | pIC50 (Recombinant human FGFR2; FP) | pIC50 (FGFR3 kinase; Z-lyte)
CCN(CC)CCNC(=O)c1ccc(Nc2ncc(CCc3cc(C(=O)NC)cc(OC)c3F)cn2)cc1 | 7.72 | 8.10 | 7.15 | 6.09 | 7.96 | 6.25 | – | – | –
CNC(=O)c1cc(OC)c(F)c(COc2cnc(Nc3ccnc(N4C[C@@H](C)N[C@@H](C)C4)c3)nc2)c1F | – | – | 7.43 | 6.87 | – | 7.10 | 7.36 | 7.64 | 7.47
